From paper PMC4332148 (Molecular Systems Biology, 2015)

Target: T1, standard 20S proteasome (human (endogenous in HEK cells), UniProt P60900 1-246; P25787 1-234; P25789 1-261; O14818 1-248; P28066 1-241; P25786 …)
T1 construct: 20S proteasome subunit α1; 20S proteasome subunit α2; 20S proteasome subunit α3; 20S proteasome subunit α4; 20S proteasome subunit α5; 20S proteasome subunit α6; 20S proteasome subunit α7; 20S proteasome standard catalytic subunit β1; 20S proteasome standard catalytic subunit β2; 20S proteasome subunit β3; 20S proteasome subunit β4; 20S proteasome standard catalytic subunit β5; 20S proteasome …
Assay: affinity purification with mass spectrometry; proteasomes affinity-purified (MCP21) from formaldehyde cross-linked HEK EBNA cells, untransfected (sP20S) or transfected with β5i, β1i and β2i (iP20S), with β5i alone or with β1i and β5i; nano-LC-MS/MS, TOP3 label-free; regulator PAI normalized by the PAI of the ncP20S, n = 4
Details: partners not purified

fold of the relative abundance in the immunoprecipitate, against iP20S: > 8 fold
B1: PI31 (natural protein, human (endogenous in human cell lines), UniProt Q92530 1-271, looked up)
chain: MAGLEVLFASAAPAITCRQDALVCFLHWEVVTHGYFGLGVGDQPGPNDKKSELLPAGWNNNKDLYVLRYEYKDGSRKLLVKAITVESSMILNVLEYGSQQVADLTLNLDDYIDAEHLGDFHRTYKNSEELRSRIVSGIITPIHEQWEKANVSSPHREFPPATAREVDPLRIPPHHPHTSRQPPWCDPLGPFVVGGEDLDPFGPRRGGMIVDPLRSGFPRALIDPSSGLPNRLPPGAVPPGARFDPFGPIGTSPPGPNPDHLPPPGYDDMYL
notes: also called PI31 proteasome regulator; source: endogenous, lysates of formaldehyde cross-linked human cell lines (the nine lines, HEK EBNA, HeLa with IFN-γ)
